# Patent publication US20140171371A1, “Compositions And Methods For The Diagnosis of Schizophrenia” (The Trustees of Columbia University in the City of New York, priority 2011, published 2014)
# Molecular target: T1, VPAC2 (Homo sapiens, UniProt P41587)
# T1 construct: endogenous in cells; host or cells: lymphoblastoid cell lines from MGS study subjects (7q36.3 duplication/triplication carriers and normal copy-number controls)
# T1 sequence (P41587 24-438): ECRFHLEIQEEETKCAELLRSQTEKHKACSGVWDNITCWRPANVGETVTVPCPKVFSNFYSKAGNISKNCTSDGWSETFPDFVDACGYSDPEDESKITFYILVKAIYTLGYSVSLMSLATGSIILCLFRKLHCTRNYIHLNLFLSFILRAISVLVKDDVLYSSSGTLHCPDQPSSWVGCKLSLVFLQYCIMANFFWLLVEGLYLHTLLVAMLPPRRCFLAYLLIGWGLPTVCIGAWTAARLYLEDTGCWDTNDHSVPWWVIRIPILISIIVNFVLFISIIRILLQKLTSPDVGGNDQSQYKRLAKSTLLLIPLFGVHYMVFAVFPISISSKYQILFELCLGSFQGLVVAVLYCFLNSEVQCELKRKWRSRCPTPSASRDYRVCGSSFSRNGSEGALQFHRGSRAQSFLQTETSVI
# Test: Cyclic AMP accumulation in lymphoblastoid cell lines in response to VPAC2 agonists (radioimmunoassay)
# Assay type: cell-based
# Conditions: agonist 100 nM + forskolin 10 μM, IBMX 200 μM pre-incubation, 10 min; fold-change over forskolin/IBMX alone; 9 carriers vs 4 controls
# Experimental: Cyclic-AMP signaling has been implicated in schizophrenia^51, 52. It was determined whether increases in VIPR2 transcription and VPAC2-mediated cAMP signaling was a consequence of the microduplications at 7q36.3. VIPR2 mRNA and cAMP accumulation in response to VIP and a VPAC2-selective agonist (BAY 55-9837) in lymphoblastoid cell lines from eight MGS study subjects was assessed: two with subtelomeric duplications, three with duplications of VIPR2, four with partial triplications, and four controls with normal copy number of the region.
# Cyclic AMP accumulation was measured in lymphoblastoid cell lines (0.5 million per ml) pre-incubated for 20 minutes with the cyclic nucleotide phosphodiesterase inhibitor isobutylmethylxanthine (IBMX, 200 μM), before the addition of the stimulatory agonists forskolin (10 μM)+/−VIP, [100 nM], BAY 55-9837 (100 nM) or prostaglandin E2 [PGE2, 1 μM] for 10 min. Reactions were terminated by pelleting the cells, aspiration of the medium and addition of 100 μl of cold 7.5% (wt/vol) trichloroacetic acid (TCA). Cyclic AMP content in TCA extracts was determined by radioimmunoassay and normalized to the number of cells per well. Data are expressed as cAMP accumulation in response to the GPCR agonists relative to the response to non-GPCR agonist forskolin (10 μM) and IBMX (200 mM) alone. […]
substance,measurement,value
vasoactive intestinal peptide [VIP],"cAMP accumulation in response to agonist, 7q36.3 duplication/triplication carriers compared to controls",significantly greater
